The text below walks through data of paper PMC11024108.

The target of this experiment is RCC1-like G exchanging factor-like protein (UniProt Q96I51). In words: cross-link between two proteins; cross-linking mass spectrometry.

The list shows a part of the results.

Take “Large ribosomal subunit protein mL64, Q8TAE8”: the “listed as a hit” value is on record as “yes”.
